{
  "source": "paper PMC2813880",
  "biological_target": "HA-tagged eIF3f mutant K_(5–10)R (mouse) (UniProt Q9DCH4)",
  "assay": "co-IP; HA-tagged eIF3f wt or K5-10R transfected in mouse primary skeletal muscle cells; extracts of 3 days differentiated myotubes immunoprecipitated with anti-HA; blots for endogenous mTOR and raptor, quantified relative to HA-eIF3f; also after 20 nM rapamycin (Figure S1, 'destabilizes')",
  "data": [
    {"substance": "endogenous mTOR (from UniProt Q9JLN9 1-2549) (enzyme)", "values": [
      {"measurement": "fold bound relative to HA-tagged eIF3f wt", "result": 2, "unit": "fold"}
    ]}
  ]
}
